Measured values from PubChem BioAssay AID504333 (National Center for Advancing Translational Sciences (NCATS), 2011).
This is a selection; strong and weak results do not stand in their true shares. Records with an inconclusive call do not appear. Entries that show only a call come without a potency. Some salts and complexes are drawn in separate pieces, as the source files them; their charges need not balance. The source made the active and inactive calls. The call rests on the fitted dose curve; in most records, active means well fitted inhibition curve with a large enough effect; inconclusive means small, poorly fitted or top-dose-only effect; inactive means no such curve, though single readings can be large or run the other way.
Further: nearly all actives have a fitted effect of over 60% in size.
Potency means the concentration at half of the fitted maximal effect.

Sequences of proteins named here, by UniProt entry; tags and fusion partners are left off.
UniProt Q9UIF8, whole entry: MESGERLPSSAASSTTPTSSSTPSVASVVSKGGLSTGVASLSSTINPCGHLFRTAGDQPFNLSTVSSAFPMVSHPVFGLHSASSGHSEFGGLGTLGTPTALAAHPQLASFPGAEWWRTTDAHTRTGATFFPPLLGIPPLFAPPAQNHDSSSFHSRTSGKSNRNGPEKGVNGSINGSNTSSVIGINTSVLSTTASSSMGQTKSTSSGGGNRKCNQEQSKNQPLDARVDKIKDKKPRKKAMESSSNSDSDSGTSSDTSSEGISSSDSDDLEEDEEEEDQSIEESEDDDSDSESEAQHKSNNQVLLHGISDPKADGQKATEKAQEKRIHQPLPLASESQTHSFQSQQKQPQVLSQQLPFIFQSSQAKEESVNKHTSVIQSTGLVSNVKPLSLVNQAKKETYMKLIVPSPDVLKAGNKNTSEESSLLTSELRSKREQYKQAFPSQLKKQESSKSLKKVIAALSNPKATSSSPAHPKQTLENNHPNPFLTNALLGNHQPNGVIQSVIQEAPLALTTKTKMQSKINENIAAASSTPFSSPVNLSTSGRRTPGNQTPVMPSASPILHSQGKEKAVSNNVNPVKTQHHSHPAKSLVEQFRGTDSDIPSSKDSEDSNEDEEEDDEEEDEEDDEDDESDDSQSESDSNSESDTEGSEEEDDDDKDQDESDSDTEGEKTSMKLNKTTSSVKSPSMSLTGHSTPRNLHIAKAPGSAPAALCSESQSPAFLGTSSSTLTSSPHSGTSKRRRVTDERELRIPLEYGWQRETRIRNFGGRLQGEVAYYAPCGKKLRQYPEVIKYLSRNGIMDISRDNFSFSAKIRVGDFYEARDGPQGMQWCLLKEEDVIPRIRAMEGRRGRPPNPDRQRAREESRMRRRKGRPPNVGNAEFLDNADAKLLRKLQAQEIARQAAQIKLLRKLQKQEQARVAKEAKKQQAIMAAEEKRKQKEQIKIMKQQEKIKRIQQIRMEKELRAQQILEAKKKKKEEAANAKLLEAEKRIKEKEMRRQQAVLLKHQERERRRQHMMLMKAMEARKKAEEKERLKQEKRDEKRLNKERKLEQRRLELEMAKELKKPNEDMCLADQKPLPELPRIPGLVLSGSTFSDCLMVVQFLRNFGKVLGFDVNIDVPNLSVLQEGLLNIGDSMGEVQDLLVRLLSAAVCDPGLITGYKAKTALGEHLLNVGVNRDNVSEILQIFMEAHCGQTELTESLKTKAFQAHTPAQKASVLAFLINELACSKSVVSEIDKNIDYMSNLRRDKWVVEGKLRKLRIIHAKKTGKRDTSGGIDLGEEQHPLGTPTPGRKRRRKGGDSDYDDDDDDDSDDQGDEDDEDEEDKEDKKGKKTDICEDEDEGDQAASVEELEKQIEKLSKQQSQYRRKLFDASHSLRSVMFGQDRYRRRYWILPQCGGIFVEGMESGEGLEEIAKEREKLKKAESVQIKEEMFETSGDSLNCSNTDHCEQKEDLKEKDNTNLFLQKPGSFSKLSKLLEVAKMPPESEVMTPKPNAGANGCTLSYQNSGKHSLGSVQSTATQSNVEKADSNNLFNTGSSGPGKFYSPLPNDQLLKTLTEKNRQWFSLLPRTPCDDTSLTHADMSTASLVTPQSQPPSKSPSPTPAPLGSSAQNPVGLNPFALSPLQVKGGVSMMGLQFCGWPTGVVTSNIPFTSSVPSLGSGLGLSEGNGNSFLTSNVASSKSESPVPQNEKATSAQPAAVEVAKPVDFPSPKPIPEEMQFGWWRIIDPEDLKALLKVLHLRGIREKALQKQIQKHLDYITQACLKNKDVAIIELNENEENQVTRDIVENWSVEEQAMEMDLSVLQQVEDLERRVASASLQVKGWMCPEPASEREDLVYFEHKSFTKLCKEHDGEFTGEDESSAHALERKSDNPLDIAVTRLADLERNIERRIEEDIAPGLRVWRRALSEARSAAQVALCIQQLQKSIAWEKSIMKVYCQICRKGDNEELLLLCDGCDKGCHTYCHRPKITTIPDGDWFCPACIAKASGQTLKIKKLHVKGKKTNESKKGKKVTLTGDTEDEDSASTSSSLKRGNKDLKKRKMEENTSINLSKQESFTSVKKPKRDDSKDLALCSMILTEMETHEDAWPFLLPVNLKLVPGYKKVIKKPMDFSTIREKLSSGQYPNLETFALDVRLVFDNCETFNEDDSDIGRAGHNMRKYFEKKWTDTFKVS

What follows are molecules tested against Bromodomain adjacent to zinc finger domain protein 2B (Homo sapiens) (UniProt Q9UIF8) (assay: qHTS Assay for Inhibitors of BAZ2B). Details: AlphaScreen BAZ2B-H3K14Ac peptide displacement; series mostly up to 114 µM.
For `Cc1ccc(OCC(C)C)c(CN(CCCl)CCCl)c1`, the Potency was active: 70.8 µM. With `CCOC(=O)N1CCC(Nc2cccc(C)c2)CC1` the Potency was active: 79.4 µM. `COc1cc(C(=O)NCC2(N(C)C)CCCCC2)ccc1OC(F)F` was tested, and the Potency was “inactive”. With `COc1ccccc1C(=O)NCC1(N2CCOCC2)CCCCC1` the Potency was “inactive”. For `CCOC(=O)N1CCC(Nc2ccc(F)cc2)CC1`, the Potency was “inactive”. For `COc1ccc(NC2CCN(CCc3ccccc3)CC2)c(OC)c1`, the Potency was active: 44.7 µM. With `CCCCOc1ccc(C(=O)NCC2(N3CCOCC3)CCCCC2)cc1` the Potency was “inactive”. `O=C(NCC1(N2CCCCC2)CCCCC1)c1ccc(F)cc1` was tested, and the Potency was “inactive”. In the case of `COc1ccc(Cl)cc1C(=O)NCC1(N2CCOCC2)CCCCC1`, the Potency is reported as “inactive”. `O=C(NCC1(N2CCCCC2)CCCCC1)c1ccc(Cl)s1` was tested, and the Potency was “inactive”. `N#CC1(Nc2ccccc2)CCN(Cc2ccccc2)CC1` was tested, and the Potency was “inactive”. In the case of `O=C(OC1CN2CCC1CC2)C1c2ccccc2Oc2ccccc21` (centres undefined), the Potency is reported as “inactive”. For `CCOC(=O)N1CCC(Nc2ccc(OC)cc2)CC1`, the Potency was “inactive”. With `Cc1cc(C)cc(N(C(=O)c2ccccc2)C2CCN(C(=O)OC(C)(C)C)CC2)c1` the Potency was “inactive”. With `O=C(NCC1(N2CCCCC2)CCCCC1)c1ccc(Cl)nc1` the Potency was “inactive”. In the case of `CSc1ccccc1C(=O)NCC1(N2CCCCC2)CCCCC1`, the Potency is reported as “inactive”. `COc1ccc(C(=O)NCC2(N3CCCCC3)CCCCC2)c(OC)c1OC` was tested, and the Potency was “inactive”. For `CC(C)(C)OC(=O)N1CCC(N(C(=O)c2ccccc2)c2ccc(F)cc2)CC1`, the Potency was “inactive”. In the case of `COc1ccc(C(=O)NCC2(N3CCCCC3)CCCCC2)cc1`, the Potency is reported as “inactive”. `O=C(NCC1(N2CCCCC2)CCCCC1)c1cccs1` was tested, and the Potency was “inactive”. For `O=C(NCC1(N2CCCCC2)CCCCC1)c1ccc(=O)[nH]c1`, the Potency was “inactive”. For `CCCOc1ccc(C(=O)NCC2(N(C)C)CCCCC2)cc1OC`, the Potency was “inactive”. With `CCCCOc1ccccc1C(=O)NCC1(N2CCOCC2)CCCCC1` the Potency was “inactive”. For `O=C(OC1CN2CCC1CC2)c1ccc([N+](=O)[O-])cc1` (centres undefined), the Potency was “inactive”. With `O=C(NCC1(N2CCCCC2)CCCCC1)c1cncc(Br)c1` the Potency was “inactive”. For `COc1ccc2c(c1O)-c1c(O)c(OC)cc3c1[C@H](C2)[N+](C)(C)CC3.O=[N+]([O-])c1cc([N+](=O)[O-])c([O-])c([N+](=O)[O-])c1[O-]`, the Potency was “inactive”. With `COc1cc(OC)c(C(=O)NCC2(N(C)C)CCCCC2)cc1OC` the Potency was “inactive”. With `CN(C)c1cccc(C(=O)NCC2(N3CCCCC3)CCCCC2)c1` the Potency was “inactive”. In the case of `COc1ccc(CN(CCCl)CCCl)cc1Cl`, the Potency is reported as “inactive”. With `COc1cc(C(=O)NCC2(N3CCCCC3)CCCCC2)ccc1OC(F)F` the Potency was “inactive”. In the case of `CC(C)c1ccc(C(=O)NCC2(N3CCOCC3)CCCCC2)cc1`, the Potency is reported as “inactive”. With `CN1CCN(CCOC(=O)C(O)(c2ccccc2)c2ccccc2)CC1` the Potency was “inactive”. For `O=C(NCC1(N2CCCCC2)CCCCC1)c1cccc(C(F)(F)F)c1`, the Potency was “inactive”. With `CCCOc1cccc(C(=O)NCC2(N3CCOCC3)CCCCC2)c1` the Potency was “inactive”. With `N#CC1(Nc2ccccc2)CCN(CCc2ccccc2)CC1` the Potency was “inactive”. `CCN1CCC(Nc2ccc(Cl)cc2)CC1` was tested, and the Potency was “inactive”. For `O=C(NCC1(N2CCCCC2)CCCCC1)c1cccc([N+](=O)[O-])c1`, the Potency was “inactive”. With `CCOc1ccc(C(=O)NCC2(N3CCOCC3)CCCCC2)cc1` the Potency was “inactive”. `CSc1ccc(C(=O)NCC2(N3CCOCC3)CCCCC2)cc1` was tested, and the Potency was “inactive”. In the case of `O=C(NCC1(N2CCCCC2)CCCCC1)c1ccc(OC(F)F)cc1`, the Potency is reported as “inactive”. For `CN(C)C1(CNC(=O)c2cccc(C#N)c2)CCCCC1`, the Potency was “inactive”. For `CCCN1CCC(Nc2cc(OC)cc(OC)c2)CC1`, the Potency was “inactive”. For `O=C(NCC1(N2CCOCC2)CCCCC1)c1ccccc1`, the Potency was “inactive”. `c1ccc(CN2CCC(Nc3ccccc3)CC2)cc1` was tested, and the Potency was “inactive”. With `CCOC(=O)C(CC)C1=NC(C)(C)Cc2ccccc21.O=[N+]([O-])c1cc([N+](=O)[O-])c(O)c([N+](=O)[O-])c1` (centres undefined) the Potency was “inactive”. `O=C(NCC1(N2CCOCC2)CCCCC1)c1ccccc1[N+](=O)[O-]` was tested, and the Potency was “inactive”. In the case of `N#Cc1ccc(C(=O)NCC2(N3CCCCC3)CCCCC2)cc1`, the Potency is reported as “inactive”. With `CC(C)(C)OC(=O)N1CCC(N(C(=O)c2ccccc2)c2ccc(Cl)cc2)CC1` the Potency was “inactive”. `O=C(NCC1(N2CCOCC2)CCCCC1)c1ccc([N+](=O)[O-])cc1` was tested, and the Potency was “inactive”. For `O=C(O)c1cccc(Nc2c([N+](=O)[O-])cc([N+](=O)[O-])cc2[N+](=O)[O-])c1`, the Potency was “inactive”. `CCc1cc(C(=O)NCC2(N3CCCCC3)CCCCC2)sc1C` was tested, and the Potency was “inactive”. For `O=C(OC1CN2CCC1CC2)C1c2ccccc2C=Cc2ccccc21` (centres undefined), the Potency was “inactive”. In the case of `CCOC(=O)N1CCC(Nc2ccc(C)cc2)CC1`, the Potency is reported as “inactive”. `N/C(=N\O)c1c(N)no[n+]1[O-]` was tested, and the Potency was “inactive”. In the case of `COc1ccc(C(=O)NCC2(N3CCOCC3)CCCCC2)cc1OC`, the Potency is reported as “inactive”. In the case of `O=C(NCC1(N2CCOCC2)CCCCC1)c1cc(Br)ccc1Cl`, the Potency is reported as “inactive”. `CN1CCC(Nc2ccc(Cl)cc2)CC1` was tested, and the Potency was “inactive”. In the case of `COc1cccc(C(=O)N(c2cc(C)cc(C)c2)C2CCN(C(=O)OC(C)(C)C)CC2)c1`, the Potency is reported as “inactive”. `COc1cc(C(=O)NCC2(N3CCOCC3)CCCCC2)cc(OC)c1OC` was tested, and the Potency was “inactive”. With `COc1cc(OC)cc(C(=O)NCC2(N3CCOCC3)CCCCC2)c1` the Potency was “inactive”. For `CCC(CO)(C(=O)OC1CN2CCC1CC2)c1ccccc1` (centres undefined), the Potency was “inactive”. With `O=C(O)C1(Nc2ccccc2)CCN(Cc2ccccc2)CC1` the Potency was “inactive”. For `CC(C)(C)OC(=O)N1CCC(Nc2ccccc2)CC1`, the Potency was “inactive”. `CCCOc1ccc(C(=O)NCC2(N(C)C)CCCCC2)cc1` was tested, and the Potency was “inactive”. For `CCOc1ncccc1C(=O)NCC1(N2CCOCC2)CCCCC1`, the Potency was “inactive”. For `Cc1ccccc1C(=O)NCC1(N(C)C)CCCCC1`, the Potency was “inactive”. In the case of `CN(C)c1ccc(C(=O)NCC2(N3CCCCC3)CCCCC2)cc1`, the Potency is reported as “inactive”. `O=C(NCC1(N2CCCCC2)CCCCC1)c1ccco1` was tested, and the Potency was “inactive”. `CC(C)(C)c1ccc(C(=O)NCC2(N3CCOCC3)CCCCC2)cc1` was tested, and the Potency was “inactive”. For `CCN1CCC(Nc2cccc(F)c2)CC1`, the Potency was “inactive”. For `Fc1ccccc1NC1CCN(Cc2ccccc2)CC1`, the Potency was active: 39.8 µM. For `Cc1ccc(C(=O)NCC2(N3CCCCC3)CCCCC2)o1`, the Potency was “inactive”. In the case of `CN(C)C1(CNC(=O)c2ccc(C(C)(C)C)cc2)CCCCC1`, the Potency is reported as “inactive”. `COc1cc(OC)cc(C(=O)NCC2(N3CCCCC3)CCCCC2)c1` was tested, and the Potency was “inactive”.
